Target: T1, ERK1 (Homo sapiens, UniProt P27361)
T1 construct: purchased Jubilant Biosys
Assay: ERK1 HTRF (biochemical) assay
Experimental: ERK1 and ERK2 HTRF (Biochemical) Assays
These assays employed a homogeneous time resolved fluorescence (HTRF) technique. […] The plate was incubated at room temperature for 60 min with shaking. […] The IC50 values (half maximal inhibitory concentration values) were subsequently determined using a sigmoidal dose-response curve (variable slope) in GraphPad Prism® 5 software.

By UniProt entry, the sequences of proteins in these tests, tags left out.
UniProt P27361, whole entry: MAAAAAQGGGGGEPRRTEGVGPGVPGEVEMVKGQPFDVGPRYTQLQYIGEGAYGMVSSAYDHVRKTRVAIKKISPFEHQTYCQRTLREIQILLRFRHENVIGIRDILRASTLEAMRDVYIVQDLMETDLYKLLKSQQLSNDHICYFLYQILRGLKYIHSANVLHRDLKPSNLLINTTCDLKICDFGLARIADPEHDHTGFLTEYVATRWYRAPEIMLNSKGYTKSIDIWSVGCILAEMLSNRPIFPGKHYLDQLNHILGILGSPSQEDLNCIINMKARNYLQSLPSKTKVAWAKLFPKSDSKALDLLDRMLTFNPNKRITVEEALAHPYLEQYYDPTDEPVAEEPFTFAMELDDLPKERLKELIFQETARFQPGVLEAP

## O=C(Nc1cnn(-c2ccnc(Nc3cccnc3)n2)c1)N[C@H](CO)c1cccc(Cl)c1 [Compound 24, (S)-1-(1-(3-chlorophenyl)-2-hydroxyethyl)-3-(1-(2-(pyridin-3-yl-amino)pyrimidin-4-yl)-1H-pyrazol-4-yl)urea]
  IC50: < 50 nM

Source: patent US9896445B2, “Heterocyclic inhibitors of ERK1 and ERK2 and their use in the treatment of cancer” (Asana Biosciences, LLC, priority 2015, dated 2018)
